Data as given in patent publication US20230310452A1, “BROMODOMAIN AND EXTRA TERMINAL DOMAIN (BET) INHIBITOR COMPOSITIONS AND METHODS THEREOF FOR USE AS ANTI-AGING AGENTS” (MDI Biological Laboratory, priority 2020, published 2023).

Test system: CGI- gene expression
Test: CGI- gene expression upon treatment with BET inhibitors other than JQ1 in cell lines/tissues (FIG. 14)
Type: cell-based
Settings: indicated cell lines/tissues, concentrations, durations, vs untreated controls
From the text: Moreover, the cell line or tissue used in the BET inhibitor treatment, as well as treatment duration and concentration were also provided.

Structure (SMILES): CCNC(=O)C[C@@H]1N=C(c2ccc(Cl)cc2)c2cc(OC)ccc2-n2c(C)nnc21 [I-BET 762, (S)-2-(6-(4-chlorophenyl)-8-methoxy-1-methyl-4H-benzo[f][1,2,4]triazolo [4,3-a][1,4]diazepin-4-yl)-N-ethylacetamide]
- CGI- gene expression upon BET inhibitors other than JQ1: suppress Cytosine-phosphate-Guanine (CpG) island negative genes
